# Experimental data taken from patent US20130030006A1, “AGENT FOR PREVENTING OR TREATING DISEASES ACCOMPANIED BY URINARY PAIN” (priority 2010, published 2013).
# Test system: rat with cyclophosphamide (CPA)-induced urinary frequency
# Assay: Rat with cyclophosphamide (CPA)-induced urinary frequency, effective bladder capacity
# Conditions: po, 1 h, read-out: effective oral administration dose (increased the reduced effective bladder capacity and improved the urinary frequency)
row,SMILES,minimal effective dose
1,"O=C(O)c1cncc(OC(=O)N2CCC(Oc3ccc(OCc4cccc(F)c4)cc3)CC2)c1 [Compound B, 5-{[(4-{4-[(3-fluorobenzyl)oxy]phenoxy}piperidin-1-yl)carbonyl]oxy}nicotinic acid]",3 mg/kg
2,"O=C(Oc1cccnc1)N1CCC(Oc2ccc(OCc3cccc(F)c3)cc2)CC1 [Compound A, pyridin-3-yl 4-{4-[(3-fluorobenzyl)oxy]phenoxy}piperidine-1-carboxylate]",3 mg/kg
3,"Cc1cccc(N2CCC(CCCC3CCN(C(=O)Oc4cncc(C(=O)O)c4)CC3)CC2)n1 [Compound F, 5-{[(4-{3-[1-(6-methylpyridin-2-yl)piperidin-4-yl]propyl}piperidin-1-yl)carbonyl]oxy}nicotinic acid]",1 mg/kg
4,"O=C(O)c1cncc(OC(=O)N2CCC(Oc3ccc(OCCC4CCCCC4)cc3)CC2)c1 [Compound D, 5-[({4-[4-(2-cyclohexylethoxy)phenoxy]piperidin-1-yl}carbonyl)oxy]nicotinic acid]",1 mg/kg
5,"CN(C)C(=O)c1cccc(CCC2CCN(C(=O)Oc3cncc(C(N)=O)c3)CC2)c1 [Compound H, 5-(aminocarbonyl)pyridin-3-yl 4-(2-{3-[(dimethylamino)carbonyl]phenyl}ethyl)piperidine-1-carboxylate]",1 mg/kg
6,"NC(=O)c1cncc(OC(=O)N2CCC(CCc3cccc(C(=O)N4CCCC4)c3)CC2)c1 [Compound J, 5-(aminocarbonyl)pyridin-3-yl 4-{2-[3-(pyrrolidin-1-ylcarbonyl)phenyl]ethyl}piperidine-1-carboxylate]",1 mg/kg
